pIC50: −log10 of the molar value.
Target: Human P2X7 (hP2X7) receptor (Homo sapiens, UniProt Q99572)
Test: Dye assay: BzATP-induced Yo-Pro-1 uptake in HEK293 cells stably expressing hP2X7
Conditions: BzATP (0.1 mM)-induced Yo-Pro-1 uptake, compounds 30 min pre-treatment, 90 min incubation
Text: Human P2X7 (hP2×7) was cloned from a normal human brain total RNA library by reverse transcription (using SuperScript II (Invitrogen)) and PCR (using KOD-plus-(TOYOBO)). PCR primers were designed according to hP2X7 sequence registered in GENBANK with a putative amino acid sequence consisting of 595 amino acid residues. The PCR fragments were inserted into pcDNA3.1/myc-HisA vector (Invitrogen) and sequenced for confirmation.
HEK293 cells were transfected with hP2×7/pcDNA3.1/myc-HisA by lipofection, and 1 day later, the cells were treated with 1 mg/mL G418, and resistant cells were selected by appropriately dilution. The resistant cells were cloned by reseeding at a low density.
P2X7 receptor antagonists were screened by a dye uptake assay using HEK293 cells stably expressing hP2×7. Cells were plated on a type I collagen-coated black/clear bottom 96-well plate at 20000 cells/well and a day later, treated with varying concentrations of various test compounds for 30 minutes, then treated with a dye (Yo-Pro-1) (final concentration 2 μM) and BzATP (final concentration 0.1 mM) and incubated for 90 minutes. Then, the fluorescence (indicating the BzATP-induced Yo-Pro-1 uptake mediated by the P2X7 receptor) was measured with a microplate reader (excitation wavelength: 485 nm, emission wavelength: 535 nm). The % inhibition rates were calculated and plotted against the logarithms of the concentrations to determine IC50.

Protein sequences, listed by entry. Tags and fused reporters are not part of them.
UniProt Q99572, whole entry: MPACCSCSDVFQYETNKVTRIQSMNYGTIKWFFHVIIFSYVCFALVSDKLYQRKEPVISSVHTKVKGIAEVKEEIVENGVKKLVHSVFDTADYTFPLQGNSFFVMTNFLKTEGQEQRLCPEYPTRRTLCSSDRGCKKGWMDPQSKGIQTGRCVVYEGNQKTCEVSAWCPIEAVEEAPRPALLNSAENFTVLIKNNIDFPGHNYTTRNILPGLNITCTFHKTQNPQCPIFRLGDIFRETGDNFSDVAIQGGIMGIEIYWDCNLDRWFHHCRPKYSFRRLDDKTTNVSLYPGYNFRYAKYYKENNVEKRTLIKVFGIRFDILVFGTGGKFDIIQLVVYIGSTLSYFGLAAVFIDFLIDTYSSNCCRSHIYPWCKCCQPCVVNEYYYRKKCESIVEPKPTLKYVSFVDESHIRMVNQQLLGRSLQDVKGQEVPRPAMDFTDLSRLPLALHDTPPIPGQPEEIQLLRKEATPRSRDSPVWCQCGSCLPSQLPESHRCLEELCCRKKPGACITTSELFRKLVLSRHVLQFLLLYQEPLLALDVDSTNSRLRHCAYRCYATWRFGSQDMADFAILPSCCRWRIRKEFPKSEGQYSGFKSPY

SMILES | pIC50
C[C@@H]1[C@H]2C[C@@H](C[C@H]1Nc1cnn(CC(=O)Nc3ccc(N4CCOCC4)nc3)c(=O)c1Cl)C2(C)C | 7.26
C[C@@H]1[C@H]2C[C@@H](C[C@H]1Nc1cnn(CC(=O)Nc3ccc(Cl)c(-n4ccnc4)c3)c(=O)c1Cl)C2(C)C | 7.57
CC1C(Nc2cnn(CC(=O)NCC3CCN(C(=O)OC(C)(C)C)C3)c(=O)c2Br)CC2CC1C2(C)C (stereo not shown) | 7.01
C[C@@H]1[C@H]2C[C@@H](C[C@H]1Nc1cnn(CC(=O)Nc3ccc(Cl)nc3)c(=O)c1Cl)C2(C)C | 6.72

From patent publication US8440666B2, “Pyridazinone compounds and P2X7 receptor inhibitors” (Nissan Chemical Industries, Ltd., priority 2007, dated 2013)
